PubChem BioAssay AID2777 (Johns Hopkins Ion Channel Center, 2010)
This is a selection; strong and weak results do not stand in their true shares. The source made the active and inactive calls.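 Rule for the calls: active = rise or fall in signal beyond 3 SD of buffer-only wells in both replicate plates, either sign; inactive = the rest.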

Test system: transient receptor potential cation channel C4 (TRPC4), mouse
Test: mouse TRPC4 modulation by TRPC6 hits, confirmation, selectivity assay for TRPC6 inhibitor project, cell-based, HEK293 TRPC4/mu-opioid, membrane potential dye (AID 2777);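 note: integrated kinetic ratio of fluorescence range over baseline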
Settings: membrane potential fluorescence, at 10 µM

Compound | activity change, negative = inhibition | outcome
O=C(OCCCN1CCCC1)C(O)(c1ccccc1)C1CCCCC1 (stereo not given) | active: 17.8% | –
CCOC(=O)c1ccc(NP(C)(=O)Oc2ccc(Cl)cc2)cc1 (stereo not given) | – | inactive
CN(C)CCOC(=O)C(O)(c1ccccc1)C1CCCCC1 (stereo not given) | active: 5.55% | –
CCN(CC)CCCOC(=O)C(O)(c1ccccc1)C1CCCCC1 (stereo not given) | active: 18.3% | –
CN(C)CCOC(=O)C(O)(c1ccccc1)C1CCCC1 (stereo not given) | active: 0.07% | –
